Experimental data published in article PMC12813979.

Experiments:
RbBP5 peptide (R5P) [1] = assay: BLI; 5 nM biotinylated R5P immobilised on streptavidin sensors; ΔN-WDR5 0.11-9.0 µM in the wells, no ARTEVY; 150 mM KCl, 20 mM Tris-HCl, 1 mM TCEP, 1 mg/mL BSA, pH 7.5; global fit of kon and koff, KD derived indirectly from them; triplicates
RbBP5 peptide (R5P) [2] = assay: BLI; 5 nM biotinylated R5P immobilised on streptavidin sensors; WDR5 0.11-9.0 µM in the wells with 20 µM ARTEVY spiked in; 150 mM KCl, 20 mM Tris-HCl, 1 mM TCEP, 1 mg/mL BSA, pH 7.5; global fit of kon and koff, KD derived indirectly from them; triplicates

| Substance | Kd (RbBP5 peptide (R5P) [1]) | Kd (RbBP5 peptide (R5P) [2]) |
| --- | --- | --- |
| N-terminus truncated WDR5, WDR5 23-334 (from UniProt P61964 23-334) (domain or fragment) | 1500 nM | – |
| WD40 repeat protein 5 (WDR5), full-length (from UniProt P61964 1-334) (natural protein) | – | 1400 nM |
